Target: SARS-CoV-2 nsp13 helicase (Severe acute respiratory syndrome coronavirus 2, UniProt P0DTD1)
Experiment: biochemical
Details: IC50 + 0.02% Tween-20

SMILES: Cc1ccc(C(=O)Nc2ccc(S(=O)(=O)O)c3cc(S(=O)(=O)O)cc(S(=O)(=O)O)c23)cc1NC(=O)c1cccc(NC(=O)Nc2cccc(C(=O)Nc3cc(C(=O)Nc4ccc(S(=O)(=O)O)c5cc(S(=O)(=O)O)cc(S(=O)(=O)O)c45)ccc3C)c2)c1 [Suramin]
- IC50: 1100 nM

Source: article PMC8286831, “Identifying SARS-CoV-2 antiviral compounds by screening for small molecule inhibitors of nsp13 helicase” (Biochemical Journal, 2021)
